The structures appear in SMILES notation. “And” between values parts separate entries of the source, which are not always exact repeats. Equal values may be shown once. Read-outs that look alike come from different tables or passages of the source.

Protein sequences, listed by entry. Tags and fused reporters are not part of them. Lines headed by an entry give the natural chain unless they say otherwise; changes in a name come on top.
UniProt Q9UNQ0: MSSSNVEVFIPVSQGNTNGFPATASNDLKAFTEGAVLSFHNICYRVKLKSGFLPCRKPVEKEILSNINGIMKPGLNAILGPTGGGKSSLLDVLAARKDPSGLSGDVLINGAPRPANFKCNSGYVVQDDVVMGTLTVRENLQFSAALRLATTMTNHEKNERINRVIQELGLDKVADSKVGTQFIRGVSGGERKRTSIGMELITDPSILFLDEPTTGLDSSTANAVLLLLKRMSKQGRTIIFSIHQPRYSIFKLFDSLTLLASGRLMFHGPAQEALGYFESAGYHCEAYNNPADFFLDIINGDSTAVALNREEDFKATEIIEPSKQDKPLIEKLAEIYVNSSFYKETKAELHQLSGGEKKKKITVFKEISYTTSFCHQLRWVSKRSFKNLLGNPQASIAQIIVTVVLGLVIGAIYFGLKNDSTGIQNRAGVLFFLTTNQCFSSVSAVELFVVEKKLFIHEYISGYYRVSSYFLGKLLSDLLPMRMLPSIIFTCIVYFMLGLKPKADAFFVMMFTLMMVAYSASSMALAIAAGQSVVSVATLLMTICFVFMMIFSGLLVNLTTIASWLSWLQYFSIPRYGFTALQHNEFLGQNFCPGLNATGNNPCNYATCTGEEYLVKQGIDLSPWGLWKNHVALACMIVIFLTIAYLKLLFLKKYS

Series [1] can be described thus: Transepithelial transport assay in parental MDCK-II cells. The format is in vitro ADME, canine. As to conditions: dog, read-out: Relative efflux transport ratio (BA/AB) at 4 h. As for the experimental part: (§1) For in vitro assays, the polarized cell line Madin-Darby canine kidney (MDCK-II) and their murine Abcg2 and human ABCG2 transduced subclones, which were previously generated and provided by A.H. Schinkel from the Netherlands Cancer Institute (Amsterdam, The Netherlands), were used.
(§2) Transcellular transport assays were performed as previously described, with minor modifications (Figure S1). Transduced MDCK-II cells were seeded as a monolayer on microporous membrane filters (3.0 μm pore size, 24 mm diameter; Transwell® 3414; Costar, Corning, NY, USA) at a density of 1.0 x 10^6 cells/well. Cells were grown for three days with daily medium replacement. […]
(§3) (to verify that the potential transport was specifically due to ABCG2). […] All samples were stored at −20 °C until being analyzed by high-performance liquid chromatography (HPLC), as described below.
Lumichrome appearance in the opposite compartment is presented as the fraction of total compound added at the beginning of the experiment and expressed as percentage. The relative efflux transport ratio was calculated as the basal to apical directed transport percentage divided by the apical to basal directed transport percentage at 4 h.

The target in series [2] is T1, Abcg2 (BCRP) (Mus musculus, UniProt Q7TMS5).
T1 sequence (Q7TMS5 1-657): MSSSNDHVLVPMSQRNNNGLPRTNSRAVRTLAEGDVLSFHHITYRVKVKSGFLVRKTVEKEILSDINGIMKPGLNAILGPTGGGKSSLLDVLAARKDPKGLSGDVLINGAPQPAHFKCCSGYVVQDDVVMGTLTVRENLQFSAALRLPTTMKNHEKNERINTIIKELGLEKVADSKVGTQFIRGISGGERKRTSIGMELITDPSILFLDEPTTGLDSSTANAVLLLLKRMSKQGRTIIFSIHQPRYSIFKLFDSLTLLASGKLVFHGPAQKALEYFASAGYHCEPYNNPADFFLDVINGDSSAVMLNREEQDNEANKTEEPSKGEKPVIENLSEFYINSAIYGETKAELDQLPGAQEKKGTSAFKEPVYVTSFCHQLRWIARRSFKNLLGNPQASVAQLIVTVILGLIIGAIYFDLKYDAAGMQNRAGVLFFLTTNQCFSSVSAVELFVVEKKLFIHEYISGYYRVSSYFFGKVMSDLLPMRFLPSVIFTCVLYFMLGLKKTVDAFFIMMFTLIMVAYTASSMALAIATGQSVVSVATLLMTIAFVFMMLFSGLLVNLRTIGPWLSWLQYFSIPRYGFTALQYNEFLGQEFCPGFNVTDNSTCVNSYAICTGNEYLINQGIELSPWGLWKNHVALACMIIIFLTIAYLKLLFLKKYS
Put plainly: Transepithelial transport assay in MDCK-II cells transduced with murine Abcg2. The format is in vitro ADME. Conditions: read-out: Relative efflux transport ratio (BA/AB) at 4 h. As for the experimental part:
as §1, §2, §3
(§4) The relative efflux transport ratio was calculated as the basal to apical directed transport percentage divided by the apical to basal directed transport percentage at 4 h. […]
(§5) The chromatographic system used for sample analysis consisted of a Waters 2695 separation module and a Waters 2998 UV photodiode array detector. […] In both cases, the flow rate was set to 1.00 mL/min and UV absorbance was measured at 260.3 nm.

For series [3], the target named is ABCG2 (BCRP) (Homo sapiens, UniProt Q9UNQ0). Put plainly: Transepithelial transport assay in MDCK-II cells transduced with human ABCG2. The format is in vitro ADME. Conditions: read-out: Relative efflux transport ratio (BA/AB) at 4 h. On the procedure:
as §1, §2, §3, §4, §5

The nature of series [4]: Plasma levels in wild-type and Abcg2-/- male mice after intraperitoneal administration. As to conditions: 10 mg/kg intraperitoneal.
Source text: (§6) Animals were handled according to institutional and ARRIVE guidelines complying with European legislation (2010/63/EU). Experimental procedures were approved by the Animal Care and Use Committee of the University of León and the Junta de Castilla y León (ULE_010_2021). Abcg2^-/- and wild-type mice were used, all of >99% FVB/N genetic background, generated and kindly supplied by A. H. Schinkel (The Netherlands Cancer Institute).
(§7) All animals, which were aged from 9 to 14 weeks and weighed 30 g, were kept in a temperature-controlled environment with a cycle of 12 h of light and 12 h of darkness and received a standard diet and water ad libitum.
Blood samples were collected at different time points (5, 10, 20, 30, 45, 60, 90 and 120 min) by cardiac puncture under anesthesia with isoflurane. Organs were harvested at the 60 min time point. All animals were euthanized by cervical dislocation at the end of the experimental procedure. Heparinized blood samples were centrifuged immediately at 3000× g for 15 min. Plasma and organs were stored at −20 °C until HPLC analysis. Three to ten animals were used for each time point. […]
as §5

The nature of series [5]: Tissue distribution in wild-type and Abcg2-/- male mice. As to conditions: 10 mg/kg intraperitoneal, 60 min.
Source text: as §6, §7
Blood samples were collected at different time points (5, 10, 20, 30, 45, 60, 90 and 120 min) by cardiac puncture under anesthesia with isoflurane. Organs were harvested at the 60 min time point. All animals were euthanized by cervical dislocation at the end of the experimental procedure. Heparinized blood samples were centrifuged immediately at 3000× g for 15 min. Plasma and organs were stored at −20 °C until HPLC analysis. Three to ten animals were used for each time point.
(§8) Tissue samples were homogenized with a mixture of 50% water:50% methanol with 0.5% HCl; 1 mL of solution per 0.1 g of organ was used. To each 100 µL of plasma, milk or tissue homogenate, 10 µL of an albendazole-2-aminosulfone solution (100 µg/mL) was added as an internal standard and 400 µL of acetonitrile was also added in order to precipitate proteins. After 10 min of being horizontally vortexed, samples were centrifuged at 10,500× g for 10 min at 4 °C. Supernatants were evaporated to dryness at 40 °C under a stream of nitrogen. Samples were reconstituted in 100 µL of cold methanol and injected into the HPLC system. However, samples for in vitro assays were directly injected into the HPLC system.
as §5

For series [6] the following is noted: 10 mg/kg intraperitoneal, 30 min.
Source text: as §6, §7
Pups of approximately 10 days old were separated from their mothers four hours before the onset of the experiment. […] Milk secretion was stimulated by oxytocin (200 μL of a 1 UI/mL solution), subcutaneously injected to lactating mice 10 min before sample collection. […] Animals were euthanized by cervical dislocation at the end of the experiment. Four to five animals were used for each group.
Heparinized blood samples were centrifuged immediately at 3000× g for 15 min to obtain plasma. Milk and plasma were also stored at −20 °C until HPLC analysis.
as §8
The chromatographic system used for sample analysis consisted of a Waters 2695 separation module and a Waters 2998 UV photodiode array detector. Separation of samples was performed on an analytical reversed-phase column (5 µm particle size, 250 × 4.6 mm, EVO C18 100 Å, Phenomenex®, Torrance, CA, USA). The mobile phase used for in vitro samples was trifluoroacetic acid 0.04%:methanol (40:60), whereas for in vivo samples, it was ammonium acetate 25 mM (pH 5):acetonitrile (85:15). In both cases, the flow rate was set to 1.00 mL/min and UV absorbance was measured at 260.3 nm.

As to `Cc1cc2nc3[nH]c(=O)[nH]c(=O)c3nc2cc1C` [lumichrome], the efflux ratio at 4 h, 10 µM in series [1] was 0.85 ± 0.13; in series [1] (with Ko143 1 µM), 0.95 ± 0.03; at Abcg2 (BCRP) [2] it was 13.8 ± 3.25; at Abcg2 (BCRP) [2] (with Ko143 1 µM) it was 1.03 ± 0.04; on ABCG2 (BCRP) [3] it was 2.57 ± 0.25; on ABCG2 (BCRP) [3] (with Ko143 1 µM) it was 1.08 ± 0.08. In series [4] (10 mg/kg), the “Plasma AUC 20–120 min, Abcg2-/- versus wild-type” value was ~2 fold and 1.8 fold. Moreover, the “Plasma levels, Abcg2-/- versus wild-type” value in series [4] (60 min) was found to be 2.1 fold. The “Accumulation in liver, Abcg2-/- versus wild-type” value in series [5] was determined as 2.3 fold. For the same compound, in series [5], the “Accumulation in testis, Abcg2-/- versus wild-type” value came out at 2.3 fold. The “Concentration in small intestine content, wild-type versus Abcg2-/-” value in series [5] was 2.7 fold. The figures for the Milk-to-plasma ratio in series [6] (Abcg2-/- lactating female mice) and in series [6] (wild-type lactating female mice) were 1.51 ± 0.35 µg/mL and 5.54 ± 1.84 µg/mL, respectively. The “Accumulation in milk, wild-type versus Abcg2-/-” value in series [6] (lactating female mice) is on record as 4.1 fold. Moreover, the “Milk-to-plasma ratio, wild-type versus Abcg2-/-” value in series [6] (lactating female mice) is reported as ~3.7 fold.

Values taken from publication PMC11431963 (International Journal of Molecular Sciences, 2024).
